Yeast mating assay 2: variants of the scFv Ab-95

Antigen: PDVDLGDISGINAS, a 14-residue peptide of the SARS-CoV-2 spike HR2 region.

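Phage display of a naive human antibody library on the peptide gave the parent. The library (AAYL52) carries one to three amino acid substitutions per variant, with no insertions or deletions. In AlphaSeq, yeast of one mating type display the scFv and yeast of the other type display the target. Binding brings cells together so that they mate, and sequencing counts the barcode pairs among the diploids. A regression on co-assayed BCL2-family reference pairs converts the normalised counts of each replicate to an apparent Kd. The assay was run in three technical replicates.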

Parent: Ab-95, a human scFv built as VH, the linker GGGGSGGGGSGGGGS, VL. Only the CDRs of the light chain vary.
VH: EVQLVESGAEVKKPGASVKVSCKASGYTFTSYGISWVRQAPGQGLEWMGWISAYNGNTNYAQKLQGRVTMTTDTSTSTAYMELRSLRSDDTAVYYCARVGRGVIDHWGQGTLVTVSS
VL: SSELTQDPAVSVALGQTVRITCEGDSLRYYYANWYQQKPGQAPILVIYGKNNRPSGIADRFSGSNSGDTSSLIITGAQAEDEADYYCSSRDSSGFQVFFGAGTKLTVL

Changes read parent residue, position, new residue, counted from the first residue of the VL shown.
Scale: log10 of Kd in nM, estimated from mating counts; low values are strong binders.
The mean shown is taken over the replicates in which the pair was detected.
An entry "n.d." has no value in the source: the pair was not observed among the diploids in that replicate. This suggests poor binding but is not conclusive.
For reference, the parent read 2.31 as the reference entry and 2.25 as a member of this library.

| # | changes | replicates, log10 nM | log10 Kd (nM), mean | signal with controls |
|---|---|---|---|---|
| 1 | A32D/N52C/R53H | n.d. / n.d. / n.d. | n.d. | 4 of 9 (4.02) |
| 2 | D25S/P54T/S89R | 3.10 / n.d. / n.d. | 3.10 | 5 of 9 (3.90) |
| 3 | Y31D/N51K | 1.87 / 1.57 / 1.11 | 1.52 | 7 of 9 (3.95) |
| 4 | K50G/N51T/V97W | 3.04 / 2.90 / 3.91 | 3.28 | 2 of 9 (3.35) |
| 5 | E23I/G49A/F98I | n.d. / n.d. / n.d. | n.d. | 1 of 9 (3.57) |
| 6 | Y30C/R90A/S92W | 2.59 / 2.42 / 3.09 | 2.70 | 1 of 9 (4.42) |
| 7 | R28D/A32E/S55L | n.d. / 4.53 / 4.28 | 4.40 | 2 of 9 (3.96) |
| 8 | N52D/R90A/V97T | n.d. / 5.07 / n.d. | 5.07 | 2 of 9 (3.42) |
| 9 | R28K/S92V/S93T | 2.20 / 2.05 / 1.72 | 1.99 | 2 of 9 (3.34) |
| 10 | D25E/R28V/G94D | 2.63 / 3.19 / 3.30 | 3.04 | 1 of 9 (3.24) |
| 11 | S89T/S93L/F98V | 5.41 / 4.04 / 4.42 | 4.62 | 4 of 9 (4.02) |
| 12 | R90T/S92A/F98A | 3.23 / 2.69 / 3.02 | 2.98 | 3 of 9 (4.11) |
| 13 | D25V/Y29D/G49A | 2.85 / 3.11 / 2.86 | 2.94 | 0 of 9 |
| 14 | D25L/F95N/V97H | 4.30 / 3.05 / n.d. | 3.68 | 3 of 9 (4.70) |
| 15 | R53Y/S55H/V97F | n.d. / 4.49 / n.d. | 4.49 | 0 of 9 |
| 16 | Y31H/R53S/R90H | n.d. / n.d. / n.d. | n.d. | 2 of 9 (4.24) |
| 17 | A32T/N52H/F95D | 4.19 / 4.16 / 2.21 | 3.52 | 5 of 9 (4.46) |
| 18 | R28P/S89P/F98E | n.d. / n.d. / n.d. | n.d. | 0 of 9 |
| 19 | R28Q/S88V/F98N | 2.59 / 4.26 / 4.06 | 3.64 | 4 of 9 (3.92) |
| 20 | N33I/P54L/F98V | 3.91 / n.d. / n.d. | 3.91 | 3 of 9 (3.78) |
| 21 | L27A/R90H/V97T | 4.68 / n.d. / n.d. | 4.68 | 2 of 9 (4.15) |
| 22 | L27S/R28Q/Q96L | 2.75 / 3.42 / 3.71 | 3.29 | 1 of 9 (4.60) |
| 23 | Y31S/S93W/V97S | 2.85 / 3.22 / 2.37 | 2.81 | 7 of 9 (3.92) |
| 24 | S93M/G94Q | 2.25 / n.d. / n.d. | 2.25 | 0 of 9 |
| 25 | G49K/N51W/S92D | n.d. / n.d. / n.d. | n.d. | 2 of 9 (3.84) |
| 26 | R53L/P54M | 3.18 / 2.52 / 3.12 | 2.94 | 4 of 9 (3.30) |
| 27 | Y30D/Y31E/S92N | 2.41 / 2.93 / 2.55 | 2.63 | 3 of 9 (3.99) |
| 28 | S26M/D91Y/S92M | n.d. / 3.03 / 3.55 | 3.29 | 3 of 9 (3.39) |
| 29 | Y29R/N51V/S55I | 4.63 / 4.73 / n.d. | 4.68 | 3 of 9 (4.08) |
| 30 | P54G/S55V/G94A | 2.71 / 2.97 / 3.47 | 3.05 | 2 of 9 (3.57) |
| 31 | Y29F/A32Y/F98K | n.d. / 5.02 / n.d. | 5.02 | 4 of 9 (4.63) |
| 32 | N33R/R90Y/V97N | n.d. / n.d. / n.d. | n.d. | 1 of 9 (3.43) |
| 33 | N33M/G49L/P54Y | 4.31 / 4.74 / 4.22 | 4.42 | 4 of 9 (3.15) |
| 34 | G24C/N51V/P54Q | 4.70 / n.d. / 4.30 | 4.50 | 4 of 9 (3.97) |
| 35 | E23F/N33A/N52P | 4.47 / 3.58 / 3.35 | 3.80 | 6 of 9 (4.13) |
| 36 | G24P/A32P/G49F | 3.91 / 4.56 / n.d. | 4.23 | 4 of 9 (4.18) |
| 37 | E23S/A32S | 2.10 / 2.27 / 2.04 | 2.14 | 4 of 9 (3.46) |
| 38 | D25K/N51S/N52V | 2.66 / 2.81 / 2.45 | 2.64 | 4 of 9 (3.96) |
| 39 | Y30G/P54R | 1.17 / 1.17 / 0.56 | 0.97 | 8 of 9 (4.07) |
| 40 | D25H/K50D/D91T | 1.69 / 1.91 / 1.37 | 1.66 | 5 of 9 (4.27) |
| 41 | Y29C/S55M/S88M | 3.50 / 3.00 / 2.81 | 3.10 | 3 of 9 (4.24) |
| 42 | G49M/N52Q/S55I | n.d. / 3.15 / n.d. | 3.15 | 0 of 9 |
| 43 | E23Y/G49P/D91Y | 4.27 / 4.04 / n.d. | 4.15 | 1 of 9 (3.79) |
| 44 | A32E/D91P/S92C | 2.79 / 2.89 / 2.66 | 2.78 | 3 of 9 (3.76) |
| 45 | D25W/P54I/V97E | 3.72 / 4.00 / 3.44 | 3.72 | 4 of 9 (3.66) |
| 46 | A32V/R53T/S92L | 4.26 / n.d. / n.d. | 4.26 | 0 of 9 |
| 47 | A32T/R90K/D91A | n.d. / 4.33 / 2.87 | 3.60 | 3 of 9 (4.04) |
| 48 | D25Q/D91W/F95A | 2.69 / 2.68 / 2.11 | 2.49 | 5 of 9 (3.83) |
| 49 | Y30N/A32Y/S88T | 3.53 / 2.78 / 3.37 | 3.23 | 5 of 9 (3.72) |
| 50 | L27C/R90F | n.d. / n.d. / n.d. | n.d. | 4 of 9 (4.17) |
| 51 | P54S/S92N/F95L | 2.54 / 2.44 / 1.86 | 2.28 | 4 of 9 (3.32) |

Extract of 3 entries:

| changes | replicates, log10 nM | log10 Kd (nM), mean | signal with controls |
|---|---|---|---|
| Y30C/R90A/S92W | 2.59 / 2.42 / 3.09 | 2.70 | 1 of 9 (4.42) |
| A32D/N52C/R53H | n.d. / n.d. / n.d. | n.d. | 4 of 9 (4.02) |
| G24C/N51V/P54Q | 4.70 / n.d. / 4.30 | 4.50 | 4 of 9 (3.97) |

Nonspecific signal, from three strains lacking the peptide, appeared in 28% of pairings of library AAYL52, centred on 3.91 (5% of these signals below 2.90); values are not corrected for it. For each scFv, signals with the empty controls are counted beside the result, with their mean in brackets.

Source: Engelhart et al. 2022 (doi:10.1038/s41597-022-01779-4), MIT Lincoln Laboratory and A-Alpha Bio; data file from the FLAb repository.